Experiments:
HeLa cells = experiment: Cell-based microfilament disruption assay, HeLa; conditions: 10 nM to 5 μM
NCI 60 cell lines = experiment: NCI 60 cell line screen, single dose and overall cytotoxicity; type: cell-based
Maximum tolerated dose = conditions: in vivo

For (+)-jasplakinolide Z3 [Compound 11], which “Divergence between cytotoxicity (HCT-116) and MF activity (HeLa)” value (HeLa cells) is on record?
The value was 100 fold.

Which “Diminished cytotoxicity (summary in the conclusions)” value (NCI 60 cell lines) does the source give for jasplakinolide M [Compound 6] here?
Its value is “≈ 1 uM”.

With jasplakinolide [Compound 1] as the substance, how does the “MTD (maximum tolerated dose)” value (Maximum tolerated dose) read?
The value was 0.625 mg/kg.
